What was measured:
Assay in all cases: relative viability (nuclei count vs DMSO), 5 days (fraction); higher = more cells survive
Metformin + Foretinib = compound: CN(C)C(=N)NC(=N)N [Metformin] + COc1cc2c(Oc3ccc(NC(=O)C4(C(=O)Nc5ccc(F)cc5)CC4)cc3F)ccnc2cc1OCCCN1CCOCC1 [Foretinib] (partner 0.25 µM); details: first compound 100 µM
How it was run: (§1)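 For relative viability, nuclei counts in treated wells were divided by those in vehicle wells. Lung cancer cell lines had been pin-tool dosed in 1536-well plates the day after seeding and cultured for 5 days, then fixed and stained in one step (final 0.05% Triton X-100, 1% formaldehyde, 1 ug/ml Hoechst) and imaged at 4×. Doses were one drug alone or a fixed anchor-drug dose plus five library-drug doses (not always all listed) in √10 steps, and values are duplicate-plate medians.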

Metformin + Decitabine = compound: CN(C)C(=N)NC(=N)N [Metformin] + Nc1ncn([C@H]2C[C@H](O)[C@@H](CO)O2)c(=O)n1 [Decitabine] (partner 2 µM); details: first compound 316.23 µM
How it was run: as §1

Metformin + Phenformin = compound: CN(C)C(=N)NC(=N)N [Metformin] + N=C(N)NC(=N)NCCc1ccccc1 [Phenformin] (partner 250 µM); details: first compound 10 µM
How it was run: as §1

Metformin + Trametinib = compound: CN(C)C(=N)NC(=N)N [Metformin] + CC(=O)Nc1cccc(-n2c(=O)n(C3CC3)c(=O)c3c(Nc4ccc(I)cc4F)n(C)c(=O)c(C)c32)c1 [Trametinib] (partner 0.02 µM); details: first compound 1000 µM
How it was run: as §1

## EBC-1
Metformin + Foretinib
  relative viability: 0.118

## NCI-H647
Metformin + Decitabine
  relative viability: 0.322

## NCI-H1666
Metformin + Phenformin
  relative viability: 0.557

## NCI-H1915
Metformin + Trametinib
  relative viability: 0.332
